The text below walks through data of patent US9045445B2, “Glycine transporter-1 inhibitors, methods of making them, and uses thereof” (Albany Molecular Research, Inc., priority 2010, dated 2015).

Sequences of proteins named here, by UniProt entry; tags and fusion partners are left off. A change or cut given only in a name is not applied to a line headed by its entry.
UniProt Q9Y345: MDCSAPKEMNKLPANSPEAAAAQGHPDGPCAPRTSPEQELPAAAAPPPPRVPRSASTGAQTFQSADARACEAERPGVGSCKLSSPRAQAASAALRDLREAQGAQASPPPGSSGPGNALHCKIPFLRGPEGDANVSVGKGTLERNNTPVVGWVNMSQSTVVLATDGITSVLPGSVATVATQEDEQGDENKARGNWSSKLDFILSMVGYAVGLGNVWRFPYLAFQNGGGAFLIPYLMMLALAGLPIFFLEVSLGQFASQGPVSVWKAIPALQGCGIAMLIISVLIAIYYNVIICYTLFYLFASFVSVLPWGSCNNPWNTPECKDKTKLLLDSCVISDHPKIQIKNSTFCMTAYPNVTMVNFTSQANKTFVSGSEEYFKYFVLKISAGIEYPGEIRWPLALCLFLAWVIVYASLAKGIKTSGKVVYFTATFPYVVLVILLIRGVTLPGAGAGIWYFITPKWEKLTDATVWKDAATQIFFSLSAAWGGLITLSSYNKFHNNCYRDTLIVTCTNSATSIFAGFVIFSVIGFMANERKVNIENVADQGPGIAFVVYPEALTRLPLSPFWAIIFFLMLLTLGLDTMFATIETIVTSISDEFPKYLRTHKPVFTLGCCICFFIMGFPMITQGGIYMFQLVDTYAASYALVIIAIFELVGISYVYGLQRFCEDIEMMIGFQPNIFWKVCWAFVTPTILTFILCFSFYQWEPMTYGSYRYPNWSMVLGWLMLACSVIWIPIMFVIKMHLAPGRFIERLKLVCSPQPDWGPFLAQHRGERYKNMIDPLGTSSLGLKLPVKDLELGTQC
UniProt P48067: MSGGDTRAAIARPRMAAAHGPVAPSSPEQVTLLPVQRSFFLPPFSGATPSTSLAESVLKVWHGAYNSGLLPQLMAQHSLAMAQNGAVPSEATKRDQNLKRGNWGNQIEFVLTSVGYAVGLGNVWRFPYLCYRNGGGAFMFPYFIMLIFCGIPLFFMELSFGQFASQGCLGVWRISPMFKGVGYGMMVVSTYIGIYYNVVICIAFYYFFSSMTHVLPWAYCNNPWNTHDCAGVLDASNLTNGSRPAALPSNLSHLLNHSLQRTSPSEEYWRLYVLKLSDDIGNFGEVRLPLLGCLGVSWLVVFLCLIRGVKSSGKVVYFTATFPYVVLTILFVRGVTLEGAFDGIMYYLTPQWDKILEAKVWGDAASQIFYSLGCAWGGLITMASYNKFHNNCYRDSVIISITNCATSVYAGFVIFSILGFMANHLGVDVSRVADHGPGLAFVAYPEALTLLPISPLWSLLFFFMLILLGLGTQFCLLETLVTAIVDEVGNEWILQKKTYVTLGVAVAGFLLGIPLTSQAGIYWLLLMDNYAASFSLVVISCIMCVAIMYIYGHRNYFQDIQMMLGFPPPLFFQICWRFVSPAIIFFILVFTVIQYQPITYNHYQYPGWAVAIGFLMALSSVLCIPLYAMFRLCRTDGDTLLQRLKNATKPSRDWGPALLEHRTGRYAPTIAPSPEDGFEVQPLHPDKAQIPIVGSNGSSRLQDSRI

One may read the IC50 as the concentration needed to halve the response being measured.

The target of test [1] is glycine transporter-2 (GlyT-2) (Homo sapiens, UniProt Q9Y345). As to the kind of experiment: [14C]glycine uptake assay in HEK-GlyT-2 transfected cells. Particulars: read-out: GlyT-2 IC50, HEK-GlyT-2 cells. In kind it is cell-based.
Test [2] has as its target glycine transporter-1 (GlyT-1) (Homo sapiens, UniProt P48067). As to the kind of experiment: [14C]glycine uptake assay in JAR cells endogenously expressing GlyT-1 (scintillation proximity). The test is classed as cell-based. To be noted: read-out: GlyT-1 IC50, [14C]glycine 5 μM, 3 hour incubation. The method, then:
The inhibitory activity of compounds of the invention against the glycine transporter-1 (GlyT-1) can be determined by the following scintillation proximity assay. The potency of each compound was assessed in inhibiting the uptake of radiolabeled glycine ([^14C]glycine) using the human choriocarcinoma cell line, JAR cells (ATCC#HTB-144), which endogenously express GlyT-1. In brief, 50,000 JARS cells were plated per well of tissue culture treated 96-well Cytostar-T plate (PerkinElmer) in RPMI media supplemented with 10% heat inactivated FBS and allowed to attach overnight at 37° C. and 5% CO2. Compounds were serially diluted 3-fold in DMSO generating a nine (9) data point response curve for each compound. Two replicates were performed per determination. The compounds were then diluted into Uptake Buffer (10 mM Hepes, 120 mM NaCl, 2 mM KCl, 1 mM CaCl2 and 1 mM MgCl2, 5 mM Alanine, pH 7.4) with a final DMSO concentration of 0.75% (v/v). […] Following a 3 hour incubation period at 37° C. and 5% CO2, the plates were sealed and placed at room temperature in the dark for 15 minutes prior to quantification of incorporated radioactivity using a MicroBeta Trilux scintillation plate reader (PerkinElmer). […]

Structures are written as SMILES.

On to `CCS(=O)(=O)N1CCN(C2(CNC(=O)c3c(N)cccc3Cl)CCCCC2)CC1`, for which the IC50 in test [1] was 41.3 µM; in test [2], 0.073 µM.

Take `CCCS(=O)(=O)N1CCN(C2(CNC(=O)c3ccccc3F)CCCCC2)CC1`: the IC50 worked out at 50 µM in test [1] and 0.157 µM in test [2].
